Test results from patent US20250333517A1.

Biological target: tumor necrosis factor-alpha (TNFα) (UniProt P01375)
Experiment: ELISA, target binding (FIG. 59)

Row | Substance | EC50
1 | Adalimumab population of the present disclosure (Biobetter), produced by SAII A3 cells (antibody; other documents disagree on this pair) | 373 pM
2 | commercially available Adalimumab product (Humira®) (antibody; other documents disagree on this pair) | 213 pM
